Article PMC12523303, “Multi-Fused S,N-Heterocyclic Compounds for Targeting α-Synuclein Aggregates” (Cells, 2025)

Chains of the proteins cited; added tags and fusions are not shown.
UniProt P08183, whole entry: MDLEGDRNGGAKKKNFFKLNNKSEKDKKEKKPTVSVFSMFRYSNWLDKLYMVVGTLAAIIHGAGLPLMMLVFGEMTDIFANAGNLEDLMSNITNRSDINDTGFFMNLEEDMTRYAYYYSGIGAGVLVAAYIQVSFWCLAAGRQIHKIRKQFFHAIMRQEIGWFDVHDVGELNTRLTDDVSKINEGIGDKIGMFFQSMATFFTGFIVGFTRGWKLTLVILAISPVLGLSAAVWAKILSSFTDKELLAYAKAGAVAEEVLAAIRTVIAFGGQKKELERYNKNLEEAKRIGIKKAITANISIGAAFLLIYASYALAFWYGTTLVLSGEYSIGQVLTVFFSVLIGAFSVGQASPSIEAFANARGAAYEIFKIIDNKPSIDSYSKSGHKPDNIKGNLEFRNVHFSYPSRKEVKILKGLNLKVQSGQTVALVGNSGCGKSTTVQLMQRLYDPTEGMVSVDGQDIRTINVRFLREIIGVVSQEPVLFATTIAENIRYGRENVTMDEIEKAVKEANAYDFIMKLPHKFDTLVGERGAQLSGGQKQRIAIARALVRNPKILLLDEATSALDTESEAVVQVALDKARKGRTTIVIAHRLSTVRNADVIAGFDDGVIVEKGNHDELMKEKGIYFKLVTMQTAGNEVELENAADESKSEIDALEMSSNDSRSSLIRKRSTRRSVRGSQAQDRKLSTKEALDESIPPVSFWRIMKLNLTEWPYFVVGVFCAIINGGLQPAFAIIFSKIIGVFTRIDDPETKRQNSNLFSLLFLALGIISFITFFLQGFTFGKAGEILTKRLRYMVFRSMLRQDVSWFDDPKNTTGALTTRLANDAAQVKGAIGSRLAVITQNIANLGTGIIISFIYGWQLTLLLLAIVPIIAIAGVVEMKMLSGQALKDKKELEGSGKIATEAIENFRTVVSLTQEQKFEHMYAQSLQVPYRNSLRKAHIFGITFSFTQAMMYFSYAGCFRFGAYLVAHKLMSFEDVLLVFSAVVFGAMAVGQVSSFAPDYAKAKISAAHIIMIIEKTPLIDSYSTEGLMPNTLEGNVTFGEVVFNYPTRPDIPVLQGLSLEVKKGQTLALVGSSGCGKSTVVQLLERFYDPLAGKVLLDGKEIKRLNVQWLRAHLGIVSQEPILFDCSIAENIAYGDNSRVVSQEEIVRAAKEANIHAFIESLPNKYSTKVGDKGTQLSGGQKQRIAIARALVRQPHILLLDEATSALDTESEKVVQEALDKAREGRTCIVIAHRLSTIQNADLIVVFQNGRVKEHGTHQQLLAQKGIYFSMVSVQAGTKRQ

Target: T1, MDR1-transfected MDCK cells (Homo sapiens, UniProt P08183)
T1 construct: host or cells: MDCK cells
Assay: Bidirectional transport in MDR1-transfected MDCK cell monolayers
Assay type: in vitro ADME

C[C@H]1O[C@@H](O[C@H]2[C@@H](O)C[C@H](O[C@H]3[C@@H](O)C[C@H](O[C@H]4CC[C@@]5(C)[C@H](CC[C@@H]6[C@@H]5C[C@@H](O)[C@]5(C)[C@@H](C7=CC(=O)OC7)CC[C@]65O)C4)O[C@@H]3C)O[C@@H]2C)C[C@H](O)[C@@H]1O [Digoxin]
Efflux Ratio (B→A/A→B) (MDR1-MDCK): 14.5 | B→A apparent permeability (basolateral-to-apical, 2 μM): 24 ×10⁻⁶ cm/s
